Source: article PMC10660610 (Scientific Reports, 2023)

Sequences of proteins named here, by UniProt entry; tags and fusion partners are left off.
UniProt P33535, whole entry: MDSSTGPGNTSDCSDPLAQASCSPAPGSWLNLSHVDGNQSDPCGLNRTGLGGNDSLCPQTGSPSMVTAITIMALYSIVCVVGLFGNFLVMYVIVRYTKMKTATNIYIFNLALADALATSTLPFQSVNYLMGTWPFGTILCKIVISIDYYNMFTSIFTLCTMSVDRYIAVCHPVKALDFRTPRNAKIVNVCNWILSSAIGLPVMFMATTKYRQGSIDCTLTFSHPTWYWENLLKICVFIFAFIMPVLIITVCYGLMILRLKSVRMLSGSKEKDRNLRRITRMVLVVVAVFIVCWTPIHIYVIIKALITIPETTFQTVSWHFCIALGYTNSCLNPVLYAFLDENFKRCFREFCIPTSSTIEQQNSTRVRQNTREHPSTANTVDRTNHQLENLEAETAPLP

Target: T1, MOR (mu-opioid receptor) (Rattus norvegicus, UniProt P33535)
T1 construct: gene Oprm1; native full-length receptor in rat brain membrane homogenate
Assay type: binding
Settings: read-out: MOR^a / Ki ± S.E.M.

SMILES: C[C@@H](NC(=O)[C@@H](N)Cc1ccc(O)cc1)C(=O)NCC(=O)N(C)[C@@H](Cc1ccccc1)C(=O)NCCO [DAMGO]
- Ki: 2.7 ± 1.1 nM
